AlphaSeq binding of Ab-14 light chain variants to a spike HR2 peptide

Target: peptide PDVDLGDISGINAS, taken from heptad repeat 2 (HR2) of SARS-CoV-2 spike.

Parent scFv Ab-14: VH joined to VL by a (GGGGS)3 linker. Changes lie in the light chain CDRs alone.
VH: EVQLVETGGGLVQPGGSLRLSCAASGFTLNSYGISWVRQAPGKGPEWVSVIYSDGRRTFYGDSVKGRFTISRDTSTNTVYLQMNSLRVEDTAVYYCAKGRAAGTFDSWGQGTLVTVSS
VL: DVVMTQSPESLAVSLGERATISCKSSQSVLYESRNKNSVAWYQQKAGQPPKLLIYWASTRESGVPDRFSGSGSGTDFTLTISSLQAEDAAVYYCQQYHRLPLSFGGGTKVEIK

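The parent was found by panning a naive human phage display library on the peptide. These sequences belong to a second round, designed from the earlier measurements on random variants of the parent. Group labels follow the data file (Ctrl: baseline library sampled from a position-specific scoring matrix, with some repeated check sequences; En: ensemble of fine-tuned language models; GP: Gaussian process model; HC: hill climbing; Gen: genetic algorithm; Gibbs: Gibbs sampling; a sequence that several methods proposed may carry one label only). The assay is AlphaSeq: two haploid yeast populations carry antibody and antigen on their surface. After mating in shaken culture at 30 °C for 16 h, diploids were selected and their barcode pairs sequenced. The ratio of observed to expected reads was calibrated, replicate by replicate, on BCL2-family standards whose Kd was known from biolayer interferometry. The assay was run in six technical replicates.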

Variants are written as CDR1, CDR2 and CDR3 of the light chain (limits as in the source). Parent: KSSQSVLYESRNKNSVA, WASTRES, QQYHRLPLS.
Numbers give log10(Kd / nM), so 0 is 1 nM and 3 is 1 µM. Smaller is tighter.
A mean of the replicates is given; it leaves out those without a signal.
A pair that was not seen in any replicate is written "no signal"; this usually means weak binding, but a binder can also be missed.
Values of this round are not directly comparable with the first-round values of the same sequences.
Three control strains display no target. For all light chain designs, 4% of the pairings with them gave a signal, with a median of 2.64 and one signal in twenty below 1.59, so weak values seen in few replicates may be background. For each scFv, signals with the empty controls are counted beside the result.
The authors averaged sequences with at least three values out of six and counted those with two or fewer as poor binders.
The parent sequence was in this pool as ten entries: three were never detected, three once, and four in most replicates, with averages from 0.34 to 2.37.

| CDR-L1 | CDR-L2 | CDR-L3 | group | mean, log10 nM | detected | signal with controls |
|---|---|---|---|---|---|---|
| KVQQSVLYESRNKNSVA | EASTRSS | QQYHRLPLS | GP_Gen | 0.13 | 6 of 6 | 1 of 18 |
| SLNKEAWDFNQTWNAVA | DHSMRVT | QDYIRLPLT | En_Gibbs | no signal | 0 of 6 | 0 of 18 |
| KMQQSGLMESRNVNSVA | HASLRLE | QQYHRLPLS | GP_Gibbs | 0.60 | 6 of 6 | 1 of 18 |
| MLSMVTEGMARKHDSVA | DNSTRES | QQYDRLPLS | En_Gen | 2.36 | 5 of 6 | 1 of 18 |
| MISDLTMYGSRNYNSVA | DLSTRGS | QQYHRLPLS | En_HC | -0.10 | 6 of 6 | 1 of 18 |
| KVSQSHPYEERNANNVA | NASYRES | QQYHRLPLS | GP_Gibbs | 0.03 | 6 of 6 | 0 of 18 |
| KSSAEVTIESDNCNSVA | SASTRES | QQYHRLPLS | Ctrl | 1.23 | 2 of 6 | 1 of 18 |
| FMEMDFDGNSVNHNSIA | SSEVVTR | QHYYRLPLS | En_Gibbs | no signal | 0 of 6 | 0 of 18 |
| QLEVFPLQAGSTQAAIA | DASHSTP | QQYARLPLM | En_Gibbs | 0.18 | 6 of 6 | 0 of 18 |
| MFSQMWALGSKVSNSVA | QASTRFN | QQYHRLPLM | En_Gen | 0.28 | 6 of 6 | 1 of 18 |
| KLMQSSLYESRNKNSVA | NASTREW | QQYHRLPLS | GP_Gibbs | 0.10 | 6 of 6 | 3 of 18 |
| TLYGLSHSMSKNKNNVA | EMTTRED | QQYDRLPLV | En_Gen | 0.38 | 6 of 6 | 1 of 18 |
| KLSQSELYESRNKNSVA | NASTRLE | QQYHRLPLS | GP_Gen | -0.15 | 6 of 6 | 0 of 18 |
| HLSQSQDYESRNKNSVA | NASQRLH | QQYHRLPLS | GP_Gibbs | -0.20 | 6 of 6 | 1 of 18 |
| KSSWSVLTESRNKNSVA | DASTRES | QQYHRLPLS | GP_HC | -0.09 | 6 of 6 | 0 of 18 |
| KLSQSVLYESRNPNNVA | EASTRES | QQYHRLPLS | GP_Gen | 0.03 | 6 of 6 | 0 of 18 |
| HSEQSVLEESRNKNSVA | WASTRES | QQYHRLPLI | Ctrl | 1.88 | 2 of 6 | 0 of 18 |
| MVTQMAMTGMTNKRSVA | NAETRED | QQYHHLPLI | En_Gen | 2.22 | 5 of 6 | 0 of 18 |
| MMSQVTGLGQRHRNNVA | QTSTREE | QQYDRLPLA | En_Gen | 0.57 | 6 of 6 | 1 of 18 |
| KSSQVYLYESRNKNSVA | SASTRES | QQYHRLPLS | GP_HC | 1.20 | 3 of 6 | 0 of 18 |
| KLSQSVLYESRNKNSVA | NASTRED | QDYHRLPLS | GP_Gen | 0.46 | 6 of 6 | 3 of 18 |
| KVEPSVQGEQRNFNAVA | SASTREQ | QQYHRLPLS | GP_Gibbs | 0.12 | 6 of 6 | 1 of 18 |
| ALTNEPESVDHHMNNIA | STSKRCM | QQYARLPLS | En_Gibbs | 0.78 | 6 of 6 | 1 of 18 |
| KLSESNLYESRNKNSVA | NASTRES | QQYHRLPLS | GP_Gen | -0.07 | 6 of 6 | 2 of 18 |
| KLSQSVEYESRNKNSVA | NASTREM | QQYHRLPLS | GP_Gen | 0.94 | 6 of 6 | 0 of 18 |
| HLSDLLSYGKDLQRAVA | GVQTRMT | QQYARLPLF | En_Gibbs | 0.36 | 6 of 6 | 1 of 18 |
| KLTISIRGEGSEVQSVA | GAENLRQ | QHYNQLPLS | En_Gibbs | no signal | 0 of 6 | 1 of 18 |
| ALSQSTDLESVHKNSIA | DLMTRES | QQYHRLPLS | En_HC | 0.82 | 6 of 6 | 0 of 18 |
| KSSQSVLYESRNHNSVA | TASTREE | QQYHRLPLS | Ctrl | 1.16 | 6 of 6 | 1 of 18 |
| HLGYATMLEEYVRNSVA | NNSTREK | QQYDRLPLS | En_Gen | 3.84 | 4 of 6 | 1 of 18 |
| KLMMSGLYESRNSNSVA | NASTREQ | QDYHRLPLS | GP_Gibbs | 0.23 | 6 of 6 | 1 of 18 |
| KVYPSDLYESRNKNSVA | QASTRES | QQYHRLPLS | GP_HC | -0.25 | 6 of 6 | 2 of 18 |
| KLPQGDLYESRNKNSVA | GASVRES | QQYHRLPLS | GP_HC | -0.12 | 6 of 6 | 1 of 18 |
| MLWQQMEGFNLVKDAIA | NAKERTG | QQYGRLPLS | En_Gibbs | 2.27 | 2 of 6 | 1 of 18 |
| KLSQSVLQLWRNKNSVA | QASHRES | QQYHRLPLS | GP_Gibbs | 1.26 | 6 of 6 | 1 of 18 |
| KISQEVWYESRNKNSVA | EASLREQ | QQYHRLPLS | GP_Gibbs | 0.57 | 6 of 6 | 3 of 18 |
| KVDQEVDGQSRNKNSVA | DASCREW | QQYHRLPLS | GP_Gibbs | 0.27 | 6 of 6 | 3 of 18 |
| KLHAYTQGFKTADASIA | EISYRAI | QQYGRLPLS | En_Gibbs | 3.53 | 2 of 6 | 2 of 18 |
| KARQSSLYESRNQNSVA | NASQRLE | QQYHRLPLS | GP_Gibbs | -0.15 | 6 of 6 | 2 of 18 |
| RVTIISDPYMENRNNIA | QTSERAH | QQYQMLPLA | En_Gibbs | -0.24 | 6 of 6 | 2 of 18 |
| QLDWYNTYATASASNIA | DKAQRAN | QQYMRLPLM | En_Gibbs | -0.27 | 6 of 6 | 2 of 18 |
| ILSQSWLYESRNKNSVA | NASQRES | QQYHRLPLS | GP_Gen | -0.16 | 6 of 6 | 2 of 18 |
| RIEDHIAEGEMRHNSIA | EEHMRMD | QMYSRLPLA | En_Gibbs | 3.13 | 4 of 6 | 3 of 18 |
| KLSQSVLYESRNKNSVA | EASTRMS | QQYHRLPLS | GP_Gen | -0.30 | 6 of 6 | 1 of 18 |
| KSQQSVLYESRNKNSVA | WASTRES | QQYHREPLS | Ctrl | no signal | 0 of 6 | 0 of 18 |
| KLEQEYLYGSRNKNSVA | QASLRES | QQYHRLPLS | GP_Gibbs | 0.09 | 6 of 6 | 1 of 18 |
| KVDQSTLYESRNKNSVA | WASTRES | QQYHRLPLS | GP_HC | 2.39 | 3 of 6 | 1 of 18 |
| KVAQGIYEGKRHSHNIA | EVSHLCD | QQYARLPLE | En_Gibbs | 2.17 | 4 of 6 | 0 of 18 |
| ALSHPSDSWQIHQNSIA | DDNLSLT | QQYHQLPLS | En_Gibbs | 2.71 | 2 of 6 | 1 of 18 |
| QMTENDKGHQAGGGSIA | DATETME | QQYMHLPLS | En_Gibbs | 0.88 | 6 of 6 | 0 of 18 |
| KLQQQVQYESRNWNSVA | NASYRQS | QQYHRLPLS | GP_Gibbs | 1.92 | 1 of 6 | 1 of 18 |
| KLTNVTGSEKVKGNNVA | EMETRER | QQYNRLPLS | En_Gen | 0.88 | 6 of 6 | 0 of 18 |
| KLSQSMPYEQRNKNSVA | NASLREV | QCYHRLPLS | GP_Gibbs | 0.01 | 6 of 6 | 0 of 18 |
| KSSQSVLLQSRNKNSVA | DASTRES | QQYHRLPLS | GP_HC | 0.39 | 6 of 6 | 1 of 18 |
| MISQLFMYGSRNYNSIA | QASEREK | QQYDRLPLE | En_HC | 1.17 | 6 of 6 | 0 of 18 |
| KSSQSELYESLNKNSVA | HAKTRES | QQYHRLPLS | Ctrl | 0.57 | 6 of 6 | 0 of 18 |
| KSSDSVLYESRGKNSVA | WASTRES | QQGHRLPLS | Ctrl | 2.26 | 2 of 6 | 0 of 18 |
| TISMHTSLFSQTINNVA | EVSTREQ | QQYDRLPLQ | En_Gen | 1.11 | 6 of 6 | 1 of 18 |
| MISQLWNMGTFAINSVA | QASIRNA | QQYDRLPLA | En_Gen | 1.28 | 3 of 6 | 0 of 18 |
| KWSQGVLYESRNKNSVA | WASTRES | QQYHRLPLS | Ctrl | 2.25 | 6 of 6 | 0 of 18 |
| KLVQSVLYESRNKNSVA | EASTRES | QQYHRLPLS | GP_Gen | 0.10 | 6 of 6 | 0 of 18 |
| KSSQSVLEESRNKNSVA | WASTRED | QQYHRLPLS | Ctrl | 1.65 | 5 of 6 | 1 of 18 |
| KLQSVTGTEKVHGNNVA | EMATRER | QQYNRLPLA | En_Gen | 0.02 | 6 of 6 | 0 of 18 |
| KSSQSVLYQSRNKNSVA | WASTRES | QQYHRLPIS | Ctrl | 2.13 | 2 of 6 | 0 of 18 |
| KMSQEVWLESRNDNSVA | MASCRED | QQYHRLPLS | GP_Gibbs | 1.65 | 6 of 6 | 0 of 18 |
| KLYQSQLYESRNVNAVA | NASQRMS | QQYHRLPLS | GP_Gibbs | -0.04 | 6 of 6 | 2 of 18 |
| KLSQSELYESRNKNSVA | EASTRCD | QQYHRLPLS | GP_Gen | -0.11 | 6 of 6 | 0 of 18 |
| KCAQGWLYESRNKNAVA | NASQREH | QQYHRLPLS | GP_Gibbs | -0.09 | 6 of 6 | 0 of 18 |
| SLAESAHLETRNKNSVA | DNTTRES | QHYDRLPLS | En_HC | 2.00 | 5 of 6 | 4 of 18 |
| MITQMETPAGQQEHSIA | HGGTKIE | QQYNRLPLA | En_Gibbs | 0.84 | 6 of 6 | 0 of 18 |
| KSTQSVLYESRNKNAVA | WASTRES | QQYHRLPLS | Ctrl | 2.00 | 2 of 6 | 0 of 18 |
| MVYGAAMMGGHARNSIA | NAQMRPD | QQYHRLPLI | En_Gen | 1.12 | 6 of 6 | 1 of 18 |
| HVAHASLESNAKMNSVA | NEACLAI | QQYHRLPLA | En_Gibbs | 1.14 | 5 of 6 | 1 of 18 |
| KSSQSPLMESRNKNSVA | HASTRES | QQYHRLPLS | Ctrl | 0.82 | 6 of 6 | 0 of 18 |
| RITDHFLGLGNGRQNIA | HAGVAVE | QQYHQLPLA | En_Gibbs | 0.58 | 6 of 6 | 1 of 18 |
| KASQSVLYESRNKNSVA | DASTRSS | QQYHRLPLS | GP_HC | 0.72 | 6 of 6 | 2 of 18 |
| KLEFSVDYEDRNKNAVA | NASTREK | QQYHRLPLS | GP_Gibbs | -0.20 | 6 of 6 | 0 of 18 |
| KVSMSVLYESRNKNSVA | EASTRES | QQYHRLPLS | GP_Gen | 0.11 | 6 of 6 | 1 of 18 |
| TISQMMLYLSNLKNSVA | QAETRES | QQYHRLPIS | En_HC | 2.25 | 5 of 6 | 0 of 18 |
| KSSQSGLYESRDKNSVA | WASTRES | QQYHRLPLS | Ctrl | 2.63 | 3 of 6 | 0 of 18 |

Excerpt, the first 13 entries:

CDR-L1,CDR-L2,CDR-L3,group,"mean, log10 nM",detected,signal with controls
KVQQSVLYESRNKNSVA,EASTRSS,QQYHRLPLS,GP_Gen,0.13,6 of 6,1 of 18
SLNKEAWDFNQTWNAVA,DHSMRVT,QDYIRLPLT,En_Gibbs,no signal,0 of 6,0 of 18
KMQQSGLMESRNVNSVA,HASLRLE,QQYHRLPLS,GP_Gibbs,0.60,6 of 6,1 of 18
MLSMVTEGMARKHDSVA,DNSTRES,QQYDRLPLS,En_Gen,2.36,5 of 6,1 of 18
MISDLTMYGSRNYNSVA,DLSTRGS,QQYHRLPLS,En_HC,-0.10,6 of 6,1 of 18
KVSQSHPYEERNANNVA,NASYRES,QQYHRLPLS,GP_Gibbs,0.03,6 of 6,0 of 18
KSSAEVTIESDNCNSVA,SASTRES,QQYHRLPLS,Ctrl,1.23,2 of 6,1 of 18
FMEMDFDGNSVNHNSIA,SSEVVTR,QHYYRLPLS,En_Gibbs,no signal,0 of 6,0 of 18
QLEVFPLQAGSTQAAIA,DASHSTP,QQYARLPLM,En_Gibbs,0.18,6 of 6,0 of 18
MFSQMWALGSKVSNSVA,QASTRFN,QQYHRLPLM,En_Gen,0.28,6 of 6,1 of 18
KLMQSSLYESRNKNSVA,NASTREW,QQYHRLPLS,GP_Gibbs,0.10,6 of 6,3 of 18
TLYGLSHSMSKNKNNVA,EMTTRED,QQYDRLPLV,En_Gen,0.38,6 of 6,1 of 18
KLSQSELYESRNKNSVA,NASTRLE,QQYHRLPLS,GP_Gen,-0.15,6 of 6,0 of 18

Reference: Li et al. 2023, doi:10.1038/s41467-023-39022-2. File: FLAb, binding data.